Molecular target: T1, Mss116 helicase core D1D2, MBP-tagged (Saccharomyces cerevisiae? (paper: yeast), UniProt P15424 88-597)
T1 sequence: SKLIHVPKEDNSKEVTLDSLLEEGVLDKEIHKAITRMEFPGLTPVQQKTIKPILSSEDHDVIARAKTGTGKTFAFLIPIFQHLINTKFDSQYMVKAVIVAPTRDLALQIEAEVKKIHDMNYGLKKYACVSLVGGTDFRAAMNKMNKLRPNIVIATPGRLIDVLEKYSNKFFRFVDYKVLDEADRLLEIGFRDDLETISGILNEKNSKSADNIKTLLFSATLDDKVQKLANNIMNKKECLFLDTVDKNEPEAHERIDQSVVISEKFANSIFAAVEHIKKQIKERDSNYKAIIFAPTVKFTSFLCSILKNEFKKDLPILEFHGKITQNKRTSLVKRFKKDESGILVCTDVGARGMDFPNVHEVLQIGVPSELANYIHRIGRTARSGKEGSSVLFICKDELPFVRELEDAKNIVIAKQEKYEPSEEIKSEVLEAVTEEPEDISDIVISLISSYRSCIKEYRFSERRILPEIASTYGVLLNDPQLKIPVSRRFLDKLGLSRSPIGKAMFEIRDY
Test: fluorescence anisotropy; ADP-BeFx titrated (value is nucleotide concentration), 2 uM protein, 10 nM RNA; 20 mM Tris-HCl pH 7.5, 100 mM KCl, 10% glycerol, 1 mM DTT, 5 mM MgCl2, 0.1 mg/ml BSA, 22 C, >=1 h; EMSA gels 6% at 4 C in 0.5x TBE; SEC with 200 mM KCl, no BSA
Conditions: protein: recombinant; tags: N-terminal MBP (MalE); label: 5' FAM; single strand

B1: A10-RNA, 5' FAM (ssRNA)
RNA: AAAAAAAAAA
Kd: 22 µM

From publication PMC4383044, “Molecular insights into RNA and DNA helicase evolution from the determinants of specificity for a DEAD-box RNA helicase” (eLife, 2014)
